Assay: Pharmacokinetics in female CD1 mice (oral / intravenous)
Format: in vivo
Details: mouse
Description: Female CD1 mice (N=3) received a single oral (gavage) or a single intravenous (bolus) injection of compound. […] Consecutive blood samples were taken sub-lingually under isofluorane inhalation from animals after 0.083 (IV), 0.25, 0.5, 1, 2, 4, 6 and 24 h and were further processed to obtain plasma. Samples were protein precipitated and analysed by LC/MS/MS.

Fz: 74%
SMILES: CC1(N)CCN(c2cnc(-c3cccc(Cl)c3Cl)c(N)n2)CC1 [SHP-099, reference compound]
